From PubChem BioAssay AID493008 (The Scripps Research Institute Molecular Screening Center, 2010)
Only a part is listed here, and it is no random draw. Calls of active or inactive are those of the source.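 How the source made its calls: active means activation above the mean over all tested compounds plus 3 SD (cut at about 30% in these data); inactive means the rest.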

target: Troponin I, cardiac muscle (Homo sapiens) + Troponin T, cardiac muscle (Homo sapiens) + Troponin C, slow skeletal and cardiac muscles (Homo sapiens) (UniProt P19429+P45379+P63316); assay: calcium sensitizers of cardiac thin filaments – biochemical, IANBD-TnC fluorescence, EC20 calcium, primary screen (AID 493008); conditions: IANBD-labeled TnC RTF fluorescence at EC20 calcium; at 7.2 µM; active compounds read high; 0% EC20 calcium, 100% full calcium;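 further: rise in fluorescence read as greater calcium sensitivity of cardiac thin filaments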

SMILES | activation
c1ccc(CN2CCC(Nc3ccccc3)CC2)cc1 | inactive: 5.7%
CCCN1CCC(Nc2cc(OC)cc(OC)c2)CC1 | inactive: 4.04%
Cc1cc(N(CCCl)CCCl)ccc1C=O | inactive: -5.71%
CN(C)C1(CNC(=O)c2cccc(C#N)c2)CCCCC1 | inactive: -2.4%
CC(C)(C)OC(=O)N1CCC(N(C(=O)c2ccccc2)c2ccc(Cl)cc2)CC1 | inactive: -7.29%
N#Cc1ccc(C(=O)NCC2(N3CCCCC3)CCCCC2)cc1 | inactive: 4.79%
N/C(=N\O)c1c(N)no[n+]1[O-] | inactive: 0.57%
CCOC(=O)N1CCC(Nc2ccc(C)cc2)CC1 | inactive: -1.13%
O=C(OC1CN2CCC1CC2)C1c2ccccc2C=Cc2ccccc21 (centres undefined) | inactive: 4.47%
O=C(NCC1(N2CCOCC2)CCCCC1)c1cc(Br)ccc1Cl | inactive: 5.67%
COc1cc(C(=O)NCC2(N3CCOCC3)CCCCC2)cc(OC)c1C | inactive: -1.68%
COc1ccc(C(=O)NCC2(N3CCOCC3)CCCCC2)cc1OC | inactive: 5.58%
CCC(CO)(C(=O)OC1CN2CCC1CC2)c1ccccc1 (centres undefined) | inactive: 2.11%
COc1cc(OC)cc(C(=O)NCC2(N3CCOCC3)CCCCC2)c1 | inactive: 4.77%
COc1cccc(C(=O)N(c2cc(C)cc(C)c2)C2CCN(C(=O)OC(C)(C)C)CC2)c1 | inactive: 7.18%
CN1CCC(Nc2ccc(Cl)cc2)CC1 | inactive: -3.49%
CCOc1ncccc1C(=O)NCC1(N2CCOCC2)CCCCC1 | inactive: 5.23%
CN1CCC(Nc2ccc(F)c(Cl)c2)CC1 | inactive: 3.54%
CCCOc1ccc(C(=O)NCC2(N(C)C)CCCCC2)cc1 | inactive: 8.89%
CC(C)(C)OC(=O)N1CCC(Nc2ccccc2)CC1 | inactive: -0.66%
O=C(O)C1(Nc2ccccc2)CCN(Cc2ccccc2)CC1 | inactive: -6.17%
Cc1ccccc1NC1(C#N)CCN(Cc2ccccc2)CC1 | inactive: -0.56%
CCN1CCC(Nc2cccc(F)c2)CC1 | inactive: 12.7%
O=C(NCC1(N2CCCCC2)CCCCC1)c1ccco1 | inactive: -1.34%
CN(C)c1ccc(C(=O)NCC2(N3CCCCC3)CCCCC2)cc1 | inactive: -1.95%

SMILES | activation
Cn1c(=O)[nH]cc(N(CCCl)CCCl)c1=O | inactive: 4.18%
COc1cc(OC)cc(C(=O)NCC2(N3CCCCC3)CCCCC2)c1 | inactive: 1.37%
CC(=O)N(c1ccccc1)C1CCNCC1 | inactive: -3.25%
Cc1ccc(NC2(C#N)CCN(Cc3ccccc3)CC2)cc1 | inactive: 6.13%
Cc1ccc(C(=O)NCC2(N3CCCCC3)CCCCC2)o1 | inactive: 9.96%
Fc1ccccc1NC1CCN(Cc2ccccc2)CC1 | inactive: 2.81%
CCOC(=O)N1CCC(Nc2cccc(C)c2)CC1 | inactive: 4.49%
COc1cc(C(=O)NCC2(N(C)C)CCCCC2)ccc1OC(F)F | inactive: 3.67%
CCOc1ccc(C)cc1CN(CCCl)CCCl | inactive: 7.74%
O=C1CCN(Cc2ccccc2)CC1 | inactive: 8.26%
O=P1(N(CCCl)CCCl)SCCCS1 | inactive: -7.33%
CCCCOc1ccc(C(=O)NCC2(N3CCOCC3)CCCCC2)cc1 | inactive: -5.81%
O=C(NCC1(N2CCCCC2)CCCCC1)c1ccc(F)cc1 | inactive: -2.86%
COc1ccc(NC2CCN(CCc3ccccc3)CC2)c(OC)c1 | inactive: -3.32%
CCOC(=O)N1CCC(Nc2ccc(F)cc2)CC1 | inactive: -4.38%
O=C(NCC1(N2CCOCC2)CCCCC1)c1cc2ccccc2o1 | inactive: -2.21%
O=C(NCC1(N2CCCCC2)CCCCC1)c1ccc(Cl)nc1 | inactive: 0.09%
Cc1cc(C)cc(N(C(=O)c2ccccc2)C2CCN(C(=O)OC(C)(C)C)CC2)c1 | inactive: 1.91%
CCOC(=O)N1CCC(Nc2ccc(OC)cc2)CC1 | inactive: -6.46%
N#CC1(Nc2ccccc2)CCN(Cc2ccccc2)CC1 | inactive: -0.83%
O=C(NCC1(N2CCCCC2)CCCCC1)c1ccc(Cl)s1 | inactive: 1.35%
O=C(OC1CN2CCC1CC2)C1c2ccccc2Oc2ccccc21 (centres undefined) | inactive: -3.21%
COc1ccc(Cl)cc1C(=O)NCC1(N2CCOCC2)CCCCC1 | inactive: -2.7%
O=C(NCC1(N2CCCCC2)CCCCC1)c1ccc(=O)[nH]c1 | inactive: 3%
O=C(NCC1(N2CCCCC2)CCCCC1)c1cccs1 | inactive: -0.71%

SMILES | activation
COc1ccc(C(=O)NCC2(N3CCCCC3)CCCCC2)cc1 | inactive: -3.17%
COc1ccc(C(=O)NCC2(N3CCCCC3)CCCCC2)c(OC)c1OC | inactive: 2.18%
CC(C)(C)OC(=O)N1CCC(N(C(=O)c2ccccc2)c2ccc(F)cc2)CC1 | inactive: 4.32%
CSc1ccccc1C(=O)NCC1(N2CCCCC2)CCCCC1 | inactive: 5.03%
Cc1cccc(NC2(C#N)CCN(Cc3ccccc3)CC2)c1 | inactive: 4.14%
CN1CCC(Nc2cccc(F)c2)CC1 | inactive: -5.15%
O=C(NCC1(N2CCCCC2)CCCCC1)c1cncc(Br)c1 | inactive: -3.19%
CCCOc1ccc(C(=O)NCC2(N(C)C)CCCCC2)cc1OC | inactive: 7.25%
COc1ccc(CN(CCCl)CCCl)cc1Cl | inactive: 3.78%
CN(C)c1cccc(C(=O)NCC2(N3CCCCC3)CCCCC2)c1 | inactive: 3.51%
CC(C)c1ccc(NC2CCN(C(=O)OC(C)(C)C)CC2)cc1 | inactive: 5.6%
COc1cc(OC)c(C(=O)NCC2(N(C)C)CCCCC2)cc1OC | inactive: -4.85%
O=C(NCC1(N2CCOCC2)CCCCC1)c1cc(F)c(F)cc1Cl | inactive: -1.78%
O=C(NCC1(N2CCCCC2)CCCCC1)c1cccc(C(F)(F)F)c1 | inactive: 0.55%
CN1CCN(CCOC(=O)C(O)(c2ccccc2)c2ccccc2)CC1 | inactive: -1%
COc1ccc(NC2CCN(C(=O)OC(C)(C)C)CC2)cc1 | inactive: 1.14%
CC(C)c1ccc(C(=O)NCC2(N3CCOCC3)CCCCC2)cc1 | inactive: -0.01%
COc1cc(C(=O)NCC2(N3CCCCC3)CCCCC2)ccc1OC(F)F | inactive: 5.6%
O=C(NCC1(N2CCOCC2)CCCCC1)c1cc(=O)[nH]c2ccccc12 | inactive: -0.04%
O=C(NCC1(N2CCCCC2)CCCCC1)c1ccc(OC(F)F)cc1 | inactive: 4.66%
CSc1ccc(C(=O)NCC2(N3CCOCC3)CCCCC2)cc1 | inactive: -9.14%
O=C(NCC1(N2CCCCC2)CCCCC1)c1cccc([N+](=O)[O-])c1 | inactive: 1.05%
CCN1CCC(Nc2ccc(Cl)cc2)CC1 | inactive: -0.07%
N#CC1(Nc2ccccc2)CCN(CCc2ccccc2)CC1 | inactive: 1.61%
